Key:
[1] = λ≧395 nm; for Yield of photoproduct (Bergman cyclized) on photolysis: 12 hours
[2] = Bergman cyclization studied by differential scanning calorimetry (DSC); settings: heating rate 10° C. per minute
[3] = 90° C. for 8 hours, with CHD

Row | Substance | Photochemical reactivity ([1]; 100 mM, anaerobic, 120 hours, 0° C., two-fold excess CHD or isopropanol) | Exothermic peak (Bergman cyclization) by DSC [2] [°C] | Thermal cyclization in solution [3] | Yield of photoproduct (Bergman cyclized) on photolysis [1] [%]
1 | 1,2,-bis(pyridine-3-oxy)oct-4-ene-2,6-diyne [Compound 1] | no reactivity | 258 | – | –
2 | (1,2-bis(pyridine-3-oxy)oct-4-ene-2,6-diyne)copper(I) [Compound 2] | – | 166 | complete conversion to the Bergman cyclized product | 50
3 | (1,2-bis(pyridine-3-oxy)oct-4-ene-2,6-diyne)copper(II) [Compound 3] | – | 135 | – | 48

Reference: patent publication US6828439B1, “Compounds, composition, and methods for photodynamic therapy” (Advanced Research and Technology Institute, Inc., priority 1999, dated 2004)
